One compound from patent US9284423B2, “Crosslinkable composition crosslinkable by real michael addition (RMA) reaction” (NUPLEX RESINS B.V., priority 2011, dated 2016) can be followed below.

This test is described as follows: Determination of Michael addition reactivity (Example 12): loss of X-H component in butyl acrylate/methanol at room temperature, by back-titration (GC for dimethylmalonate). The class given is physicochemical. To be noted: with strong base, same method as for succinimide. The procedure: 5 grams of succinimide (50.5 mmole) were dissolved in a mixture of 42 grams of butyl acrylate and 42 grams of methanol, and maintained at room temperature as such, or after adding a strong base (9.82 grams of a 1.12 meq/g solution of tetrabutylammonium hydroxide in methanol, 11 meq). Subsequently, the concentration of succinimide is determined as a function of time by taking samples, neutralizing with a known excess of HCl in water, and backtitration with a KOH solution. […] With the base added, the succinimide concentration can be seen to decrease with time, as illustrated in the table F below. Succinimide concentration is expressed as % relative to the theoretical level based on used amounts.
Using the same method, also the reactivity for various other components was determined; as a reference a similar set-up was used for the reactivity of dimethylmalonate under these conditions (only in this case, the remaining DMM level was determined with GC). Table G lists the results of the relative Michael addition reactivities, expressed as a number indicating the initial increase in % conversion, per minute, under these conditions.

For `NS(=O)(=O)c1ccccc1` [benzenesulfonamide], the “Relative conversion rates (relative Michael addition reactivity: initial increase in % conversion, per minute)” value was 0.11 % conversion, per minute.
